Reference: PMC6151599, “Intestinal Absorption of Triterpenoids and Flavonoids from Glycyrrhizae radix et rhizoma in the Human Caco-2 Monolayer Cell Model” (Molecules : A Journal of Synthetic Chemistry and Natural …, 2017)
Entries after “also recorded” stand apart in the source; their conditions may differ.

Test system: Caco-2 cell monolayer
Test: Bidirectional transport (Papp) across Caco-2 cell monolayer
Type: in vitro ADME, human
Details: for Detection of compound in the receiving side: after incubation for 90 min, AP→BL and BL→AP; for Absorption designation: from Caco-2 Papp compared with propranolol and atenolol
Method: The Caco-2 cell monolayer permeability was carried out according to the previously reported method. Briefly, the Caco-2 cells were maintained in DMEM containing 10% FBS, 1% NEAA, 100 units/mL of penicillin, and 100 µg/mL of streptomycin, in a constant humidity atmosphere of 5% CO2 and 95% air at 37 °C. For confluence and differentiation, cells were seeded at a density of 1 × 10^5 cells/cm^2 into 12-well Transwell plates (insert diameter 12 mm, pore size 3.0 μm, membrane growth area 1.12 cm^2, Costar® #3402) and were allowed to grow for 21 days before the permeation experiment. On day 21, the monolayers with TEER values > 500 Ω·cm^2 were qualified for the transport experiment. The transport study was initiated by the careful removal of the culture medium from AP and BL sides of the inserts. Caco-2 monolayers were rinsed twice with pre-warmed HBSS and were incubated by pre-warmed HBSS for 30 min at 37 °C. Stock solutions of assayed compounds 1–10 were prepared in DMSO and diluted to 50 µM with HBSS. […] The assayed solutions (50 µM) were added to the AP side (0.5 mL, for absorption transport) or BL side (1.5 mL, for efflux transport) of the inserts, while the receiving chamber contained the corresponding volume of HBSS. Incubation was performed at 37 °C for 90 min, with shaking at 50 rpm. Samples were collected from the inserts and lyophilized. The dried sample was then sonicated with the appropriate volume of MeOH, followed by centrifugation at 15,000× g for 10 min. The supernatant was filtered through a 0.45 μm filter and injected into HPLC system for quantitative analysis.
The AP to BL or BL to AP permeability coefficient (Papp) value of each compound was calculated based on the following equation:Papp = (dQ/dt) × (1/A) × (1/C0) (cm/s)(1) where dQ/dt is the rate of the appearance of the test compound on the receiver compartment (μmol/s), C0 is the initial test compound concentration on the donor compartment (μmol/mL), and A is the surface area of Caco-2 monolayer (cm^2).
While shaking the samples (37 °C, 50 rpm), 1.3 mL aliquots were taken from BL side or 0.45 mL aliquots were taken from AP side at 30 min intervals from […].
After shaking the samples (37 °C, 50 rpm) in a shaking water bath for 90 min, aliquots were collected as described above.

## isoliquiritin apioside [Compound 8]
  Detection of compound in the receiving side: below the lower limit of detection; also recorded: not detected
  Absorption designation: poorly absorbed; also recorded: very poorly absorbed

## liquiritin apioside [Compound 10]
Caco-2 monolayer, both directions
  Papp values (bidirectional): < 0.1 ×10⁻⁶ cm/s
  Detection of compound in the receiving side: below the lower limit of detection; also recorded: not detected
  Absorption designation: poorly absorbed; also recorded: hardly permeate; also recorded: very poorly absorbed
